ChEMBL document CHEMBL5543169, “Exploring Subsite Selectivity within Plasmodium vivax N-Myristoyltransferase Using Pyrazole-Derived Inhibitors” (J Med Chem, 2024)

How the values were obtained:
[1] = Selectivity index, ratio of IC50 for NMT (unknown origin) to IC50 for Plasmodium vivax NMT
[2] = Selectivity index, ratio of IC50 for human NMT2 to IC50 for Plasmodium vivax NMT
[3] = Selectivity index, ratio of IC50 for human NMT1 to IC50 for Plasmodium vivax NMT
[4] = Selectivity index, ratio of IC50 for human NMT to IC50 for Plasmodium vivax NMT (27 to 410 residues) expressed in Escherichia coli Rosetta 2 (DE3) cells

With O=C(c1cccc(NCc2cc(-c3ccc(Cl)cc3)c[nH]c2=O)c1)N1CCOCC1 as the compound, how does the Ratio IC50 [1] read?
Its Ratio IC50 is 37.

Which results are given for Cc1nn(C)c(C)c1CCOc1cc(F)ccc1-c1ccc2c(c1)c(CN(C)C)nn2C?
Ratio IC50 [2]: 3.8; Ratio IC50 [3]: 2.3

Which Ratio IC50 [4] does the source give for Cc1nn(C)c(C)c1CCOc1cccnc1-c1cccc(N2CCNCC2)c1 here?
Its Ratio IC50 is 259.
